Measurements as given in ChEMBL document CHEMBL1130333, “On the mechanism of chorismate mutases: Revisiting structural requirements for catalysis” (Bioorg Med Chem Lett, 1997).

Experiment: The compound was tested for inhibition of Bacillus subtilis chorismate mutase (BcCM)

Ki: 500 µM
SMILES: C=C(OC1C=C(C(=O)O)C=CC1O)C(=O)O (stereo unspecified)
